# Antibody variant affinities, Ab-14 light chain, assay 1

Target peptide (SARS-CoV-2 spike, HR2 region): PDVDLGDISGINAS

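AAYL50 was designed without a model: most single CDR substitutions and a random sample of double and triple ones. The assay is AlphaSeq: two haploid yeast populations carry antibody and antigen on their surface. The frequency of each diploid, read from paired DNA barcodes, reflects how well the two displayed proteins bind. Each replicate has its own calibration line, from reference interactions of the BCL2 family. The assay was run in three technical replicates.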

The variants keep the heavy chain, the linker and the frameworks of Ab-14 (scFv order VH, the linker GGGGSGGGGSGGGGS, VL).
VH: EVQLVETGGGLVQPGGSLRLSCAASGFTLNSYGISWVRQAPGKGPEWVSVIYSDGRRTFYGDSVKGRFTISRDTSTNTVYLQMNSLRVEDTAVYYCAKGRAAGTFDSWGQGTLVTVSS
VL: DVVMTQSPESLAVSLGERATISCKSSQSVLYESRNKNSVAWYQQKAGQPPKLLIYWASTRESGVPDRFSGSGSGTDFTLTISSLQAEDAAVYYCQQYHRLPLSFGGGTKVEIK

Changes read parent residue, position, new residue, counted from the first residue of the VL shown.
Numbers give log10(Kd / nM), so 0 is 1 nM and 3 is 1 µM. Smaller is tighter.
"ND" marks a missing value. The strain was present, yet no cells mated with the target were sequenced in that replicate, which points to weak or no binding.
Empty control strains, which show no peptide, gave a signal in 18% of pairings with library AAYL50; the median was 4.19 and 95% of these signals were weaker than 2.99. No background was subtracted. For each scFv, signals with the empty controls are counted beside the result, with their mean in brackets.

{"changes": "E32G+W56Y+S103W", "replicates, log10 nM": "0.14 / 0.59 / 0.39", "signal with controls": "1 of 9 (4.94)"}
{"changes": "S25R+S33R+Y97L", "replicates, log10 nM": "ND / ND / ND", "signal with controls": "0 of 9"}
{"changes": "S25K+Q27G+L30M", "replicates, log10 nM": "1.80 / 2.02 / 2.27", "signal with controls": "4 of 9 (3.97)"}
{"changes": "K36P+A40T+E61N", "replicates, log10 nM": "ND / ND / ND", "signal with controls": "0 of 9"}
{"changes": "E32C+R60K+E61K", "replicates, log10 nM": "ND / ND / ND", "signal with controls": "3 of 9 (3.16)"}
{"changes": "K24M+S26H", "replicates, log10 nM": "4.26 / 3.52 / 3.90", "signal with controls": "4 of 9 (4.58)"}
{"changes": "N35I+S58M+Q96A", "replicates, log10 nM": "3.27 / ND / 3.60", "signal with controls": "2 of 9 (4.07)"}
{"changes": "Y31K+A57Q+Q96L", "replicates, log10 nM": "3.82 / ND / 2.44", "signal with controls": "1 of 9 (5.46)"}
{"changes": "E61T+P101N+L102F", "replicates, log10 nM": "ND / ND / ND", "signal with controls": "1 of 9 (4.05)"}
{"changes": "W56C+P101I", "replicates, log10 nM": "ND / ND / ND", "signal with controls": "0 of 9"}
{"changes": "N35S+A40H+S58N", "replicates, log10 nM": "ND / 4.02 / ND", "signal with controls": "2 of 9 (4.83)"}
{"changes": "Q27E+Y97N+R99A", "replicates, log10 nM": "ND / ND / ND", "signal with controls": "1 of 9 (4.40)"}
{"changes": "N37L+Q95A+Y97Q", "replicates, log10 nM": "ND / ND / ND", "signal with controls": "0 of 9"}
{"changes": "S26W+R34H", "replicates, log10 nM": "2.19 / 2.62 / 2.61", "signal with controls": "3 of 9 (3.52)"}
{"changes": "Y97A+P101R", "replicates, log10 nM": "0.71 / 0.88 / 0.85", "signal with controls": "1 of 9 (3.04)"}
{"changes": "A40W+Q96V+L102R", "replicates, log10 nM": "ND / ND / ND", "signal with controls": "2 of 9 (4.34)"}
{"changes": "N37I+R60A+H98P", "replicates, log10 nM": "ND / ND / ND", "signal with controls": "0 of 9"}
{"changes": "S26Y+Y31N+A40N", "replicates, log10 nM": "ND / ND / ND", "signal with controls": "0 of 9"}
{"changes": "K24T+S58M+S103D", "replicates, log10 nM": "ND / ND / 5.24", "signal with controls": "3 of 9 (4.06)"}
{"changes": "S28M+A40R+W56V", "replicates, log10 nM": "ND / ND / ND", "signal with controls": "1 of 9 (3.51)"}
{"changes": "E32F+S58K+P101L", "replicates, log10 nM": "ND / ND / ND", "signal with controls": "0 of 9"}
{"changes": "R60P+S62V+H98P", "replicates, log10 nM": "ND / ND / ND", "signal with controls": "1 of 9 (4.12)"}
{"changes": "S33L+A40P+Q96I", "replicates, log10 nM": "ND / ND / ND", "signal with controls": "1 of 9 (3.08)"}
{"changes": "E32P+S58V+E61T", "replicates, log10 nM": "2.25 / 2.27 / 2.57", "signal with controls": "1 of 9 (4.04)"}
{"changes": "S26E+V29Q+R60K", "replicates, log10 nM": "2.44 / 1.93 / 2.25", "signal with controls": "0 of 9"}
{"changes": "S58E+Q95M+L102G", "replicates, log10 nM": "5.88 / 3.78 / 6.52", "signal with controls": "4 of 9 (4.63)"}
{"changes": "S28H+V39C+T59A", "replicates, log10 nM": "ND / ND / ND", "signal with controls": "1 of 9 (3.43)"}
{"changes": "N35E+Q95L+Q96V", "replicates, log10 nM": "ND / ND / ND", "signal with controls": "1 of 9 (3.49)"}
{"changes": "S28N+Y31M+S58G", "replicates, log10 nM": "0.83 / 1.14 / 0.96", "signal with controls": "2 of 9 (4.51)"}
{"changes": "N37V+A40W+H98W", "replicates, log10 nM": "ND / ND / ND", "signal with controls": "2 of 9 (3.98)"}

For reference, 4 entries of the list once more:

{"changes": "N35I+S58M+Q96A", "replicates, log10 nM": "3.27 / ND / 3.60", "signal with controls": "2 of 9 (4.07)"}
{"changes": "S28N+Y31M+S58G", "replicates, log10 nM": "0.83 / 1.14 / 0.96", "signal with controls": "2 of 9 (4.51)"}
{"changes": "K24M+S26H", "replicates, log10 nM": "4.26 / 3.52 / 3.90", "signal with controls": "4 of 9 (4.58)"}
{"changes": "E32G+W56Y+S103W", "replicates, log10 nM": "0.14 / 0.59 / 0.39", "signal with controls": "1 of 9 (4.94)"}

For reference, the parent read 0.65 as the reference entry and 1.68 as a member of this library.

The measurements come from Engelhart et al. 2022 (doi:10.1038/s41597-022-01779-4) through the FLAb antibody collection.